The nature of this assay: Selectivity ratio, ratio of IC50 for equine serum BuChE to IC50 for Electrophorus electricus AchE.

For `COc1cc2c(cc1OC)C(=O)C(CC1CCN(Cc3ccccc3)CC1)C2` (stereo unspecified), the Ratio IC50 was 180.
